Rows were chosen to be rich in hits. Some 0.46% of all compounds tested hit in one or more screens of this group.
GIV Gai3 FP = inhibitors of GIV GBA-motif binding to rat Galpha-i3; P08753; Galpha-i3/FITC-GIV peptide fluorescence polarization, 90 min; active compounds read low; scaled: aluminum fluoride 0%, vehicle 100%; percent of control (FP), % (concentration not given with the values); 210,000 compounds, 0.42% hits; AID 1224905;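 active means replicate mean at 85% of control or lower, very high polarization wells dropped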;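 further: wells of about 15 µL received 100 nL stock; the first replicate is given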
HCMV NEC inh = inhibitors of HCMV UL50-UL53 interaction, biochemical, HTRF; normalized percent inhibition; hit rate 0.15% among 190,000; AID 1918969, 2023; inhibition, % (no concentration beside the values); HCMV UL50-UL53 nuclear egress complex (human cytomegalovirus); in the data active means inhibition above about 27%, passing the limit was not always enough
GIV-Gai FP conf = inhibitors of GIV peptide binding to Galpha-i3, confirmation, biochemical, fluorescence polarization, FITC-GIV peptide, rat Galphai3. fluorescence polarization, mP at 100 µM. hit rate 38% among 580. hits give low values. shares compounds with GIV Gai3 FP;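 active means inhibition score of 15 or more, meaning 100 minus mean polarization as percent of control over three replicates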;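 further: lower mP means peptide displaced from Galphai3 so more inhibition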
GIV Gai AS conf = inhibitors of GIV binding to Galpha-i3, confirmation, orthogonal assay for GIV-Galpha-i inhibitor project, biochemical, AlphaScreen, His-GIV, GST-Galphai3. hit rate 39% among 580. AlphaScreen counts at 100 µM. purified proteins, 90 min; hits give low values. AID 1259351, 2017. shares compounds with GIV Gai3 FP;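 active means inhibition score at or above a set limit, where the score is 100 minus the three-replicate mean percent of control signal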
The depositor's hits bear a star; . = not tested or not shown.

Values run as follows: GIV Gai3 FP, HCMV NEC inh, GIV-Gai FP conf, GIV Gai AS conf
> Cc1ccc(C2C=C(c3ccccc3)Nc3nc(NS(=O)(=O)c4ccc(C)cc4)nn32)cc1 (stereo not drawn)
    100, ., ., .
> CS(=O)(=O)Nc1nc2n(n1)C(c1ccccc1)C=C(c1ccccc1)N2 (stereo not drawn)
    53*, ., 44*, 28094
> CN(C)CCNC(=O)c1ccc(-n2c(-c3ccccc3)nc3cccnc32)cc1
    83*, -15, 60, 33901
> O=C(NCCn1c(-c2ccccc2)nc2cccnc21)c1ccc(Cl)cc1
    110, -17, ., .
> CCC(=O)N1CCc2cc(N3CC(C(=O)N4CCCN(C)CC4)CC3=O)ccc21 (stereo not drawn)
    102, ., ., .
> Cc1cc2c(NC(=O)CC(C)(C)CC(=O)O)cccc2nn1
    98, -37, ., .
> Cc1cc2c(NC(=O)COCC(=O)O)cccc2nn1
    73*, -28, 55*, 16084*
> COc1cc(Br)cc2cc3c(=O)n(-c4ccccc4)nc-3oc12
    99, ., ., .
> Cc1ccc(CNC(=O)C2(C)CCCN(C(=O)COc3cccc(C)c3)C2)cc1 (stereo not drawn)
    110, ., ., .
> CCOC(=O)CC(=O)CSc1nc(-c2cccs2)cc(-c2cccs2)c1C#N
    115, ., ., .
> CCOC(=O)CC(=O)CSc1nc2c(c(-c3cccs3)c1C#N)CCC2
    96, ., 68, 43008
> CN(c1ccc(Br)cc1)S(=O)(=O)c1ccc2[nH]cc(C(=O)NCc3ccccn3)c(=O)c2c1
    64*, ., 48*, 60749
> CCCCCCNC(=O)c1c[nH]c2ccc(S(=O)(=O)N(C)c3ccc(Br)cc3)cc2c1=O
    112, ., ., .
> COc1ccc(-c2nnc(NC(=O)CC(C)C)s2)cc1
    ., 27, ., .
> COc1ccc(CN2C3CCCC2CC(NC(=O)NC2CCCCC2)C3)cc1 (stereo not drawn)
    105, -11, ., .
> COc1ccc(Cn2ccc3nc(C)c(C(=O)Nc4cc(OC)cc(OC)c4)cc3c2=O)cc1
    104, -19, ., .
> CCc1cccc(NC(=O)c2cc3c(=O)n(Cc4ccc(OC)cc4)ccc3nc2C)c1
    88, ., 79, 34190
> CCOC(=O)c1c(-c2ccc(Br)cc2)csc1/N=C/c1c(C)[nH]n(-c2ccccc2)c1=O
    75*, -10, 68, 41072
> CCOC(=O)c1c(-c2ccc(Br)cc2)csc1/N=C/C1C(=O)NC(=S)NC1=O
    90, ., ., .
> CCOC(=O)C1CCN(C(=O)c2nn(C)c3c2CCc2sccc2-3)CC1
    100, 8, ., .
> COC(=O)c1ccc(N2N=C(C)/C(=C/c3ccc(-c4cccc(C(=O)O)c4)o3)C2=O)cc1
    86, -20, 56, 18724*
> CCOC(=O)c1cccc(-c2ccc(/C=C3\C(=O)N(c4cccc(C(=O)O)c4)N=C3C)o2)c1
    93, -27, ., .
> COc1ccc(CNC(=O)C(C)n2ccc3c(C)nn(C)c3c2=O)c(OC)c1 (stereo not drawn)
    102, ., ., .
> CCCCSc1c(C(C)C)cnc2c1c(=O)n(C)c(=O)n2C
    100, ., ., .
> CC(=O)Nc1nonc1NC(C)=O
    107, -9, ., .
> CC(=O)Nc1cc(OC(C)=O)c2nonc2c1OC(C)=O
    -28*, 101*, 16*, 3290*
> COc1ccc(-c2cc3cc(OC)c(OC)cc3c(Cc3cccc4ccccc34)n2)cc1OC
    119, ., ., .
> CC(=O)Nc1cc2nc3[nH]c(=O)n(C)c(=O)c3nc2cc1C
    69*, -42, 52, 35695
> Cc1cc2nc3c(=O)n(C)c(=O)[nH]c3nc2cc1N=CN(C)C
    88, -26, 12*, 26021*
> CC(=O)Nc1cc2nc3[nH]c(=S)[nH]c(=O)c3nc2cc1C
    109, -132, ., .

Among those listed so far, 6 have a halogen:
Values run as follows: GIV Gai3 FP, HCMV NEC inh, GIV-Gai FP conf, GIV Gai AS conf
> O=C(NCCn1c(-c2ccccc2)nc2cccnc21)c1ccc(Cl)cc1
    110, -17, ., .
> COc1cc(Br)cc2cc3c(=O)n(-c4ccccc4)nc-3oc12
    99, ., ., .
> CN(c1ccc(Br)cc1)S(=O)(=O)c1ccc2[nH]cc(C(=O)NCc3ccccn3)c(=O)c2c1
    64*, ., 48*, 60749
> CCCCCCNC(=O)c1c[nH]c2ccc(S(=O)(=O)N(C)c3ccc(Br)cc3)cc2c1=O
    112, ., ., .
> CCOC(=O)c1c(-c2ccc(Br)cc2)csc1/N=C/c1c(C)[nH]n(-c2ccccc2)c1=O
    75*, -10, 68, 41072
> CCOC(=O)c1c(-c2ccc(Br)cc2)csc1/N=C/C1C(=O)NC(=S)NC1=O
    90, ., ., .

More results.
Values run as follows: GIV Gai3 FP, HCMV NEC inh, GIV-Gai FP conf, GIV Gai AS conf
> CCCCCCn1c(=O)[nH]c2nc3cc(N)c(C)cc3nc2c1=O
    111, -39, ., .
> Cc1nn(-c2ccccc2)c2c1CN(C(=O)Nc1ccc3c(c1)OCO3)C(c1ccccc1)c1cccn1-2 (stereo not drawn)
    103, 0, ., .
> CCOc1ccc(-c2nonc2NC(=O)COc2ccc(Cl)cc2)cc1OCC
    98, -14, ., .
> CCn1c2ccccc2c2nc3cc4ccccc4cc3nc21
    44*, -8, 39*, 55414
> CCn1c2ccc(OC)cc2c2nc3ccccc3nc21
    96, -60, ., .
> COC(=O)c1ccc(NC(=O)C(C)Sc2n[nH]c(C)n2)cc1 (stereo not drawn)
    102, 6, ., .
> CCOC(=O)c1ccc(Nc2c(C(=O)OCC)cnc3ccccc23)cc1
    107, ., ., .
> CCOC(=O)c1c(NC(=O)c2nc(S(=O)(=O)CC)ncc2Cl)sc2c1CCCC2
    97, -2, ., .
> CCCS(=O)(=O)c1ncc(Cl)c(C(=O)Nc2sc3c(c2C(=O)OCC)CCCC3)n1
    76*, 7, 62, 44265
> Cc1cc(C(=O)C2CC(=O)Nc3c2c(C)nn3-c2ccc(Br)cc2)c(C)s1 (stereo not drawn)
    106, ., ., .
> CCOC(=O)N1CCN(C(=O)c2ccc3nc(-c4ccc(OC)c(OC)c4)c(-c4ccc(OC)c(OC)c4)nc3c2)CC1
    84*, ., 65, 50289
> COc1ccc(-c2nc3ccc(C(=O)N4CCN(c5ccccc5)CC4)cc3nc2-c2ccc(OC)c(OC)c2)cc1OC
    102, ., ., .
> CCOc1ccc(CC(=O)NCC(c2ccc3c(c2)CCCN3C)N2CCCC2)cc1 (stereo not drawn)
    105, -13, ., .
> CN1CCCc2cc(CN)ccc21
    69*, 0, 54*, 4022*
> CCCC(=O)Nc1ccc2c(C)cc(C)nc2n1
    103, 0, ., .
> CC(=O)N1CN(C(C)=O)C(O)C1O (stereo not drawn)
    103, 4, ., .
> CC(=O)N1CC(C)=C(C#N)C1O (stereo not drawn)
    73*, 2, 48*, 19185*
> CCOC(=O)c1ccc2nc(NC(=O)C3CCCCC3)sc2c1
    ., 7, ., .
> O=C(Cc1ccccc1)NC1(O)C(=O)c2ccccc2C1=O
    61*, 50*, 52*, 45267
> Cc1ccc(C(=O)O)cc1NC1(c2ccccc2)C(=O)c2ccccc2C1=O
    98, ., ., .
> O=C(NO)c1ccc(C(F)(F)F)cc1
    ., -10, ., .
> O=C(NC1(O)C(=O)c2ccccc2C1=O)c1ccccn1
    74*, 36, 68, 36588
> O=C(NCCc1ccccc1)c1ccccn1
    ., -34, ., .
> Cc1ccc(C(=O)NC2(O)C(=O)c3ccccc3C2=O)cc1C
    57*, 59*, 45*, 46487
> O=C(NC1(O)C(=O)c2ccccc2C1=O)c1ccc(C(F)(F)F)cc1
    56*, 58*, 61, 32539
> O=C(O)CNC(=O)Cc1ccccc1
    104, -15, ., .
> NCc1cc2ccccc2s1
    103, -24, ., .
> COC(=O)c1ccccc1NC(=O)COc1ccc2oc(-c3ccco3)cc(=O)c2c1
    107, -28, ., .
> O=C(NCCCO)c1ccc(Cl)cc1
    103, 22, ., .
> Cc1ccc(C)n1-c1ccc(C(=O)O)c(C(=O)O)c1
    60*, 11, 49*, 3015*
> Cc1ccc(C)n1-c1ccc(CC(=O)O)cc1
    36*, -23, 33*, 2612*
> CCc1ccc(-n2c(C)ccc2C)cc1
    ., -34, ., .
> Cc1ccc(C)n1-c1sccc1C(=O)CC#N
    106, -12, ., .

Compound activity from PubChem.
